{"source": "patent US7151191B2", "about": "“Compounds and compositions for delivering active agents” (Emisphere Technologies, Inc., priority 2000, dated 2006)", "assay": "Oral (PO) delivery of human zinc insulin with delivery agent compound in rats (serum insulin ELISA)", "settings": "rat, insulin alone without delivery agent, previous experiments", "procedure": "Oral dosing (PO) compositions of delivery agent compound and human zinc insulin (minimum 26 IU/mg available from Calbiochem—Novabiochem Corp, La Jolla, Calif.) were prepared in deionized water. […] The solution was vortexed, then heated (about 37° C.) and sonicated. The pH was adjusted to about 7 to 8.5 with NaOH or HCl. […] The final delivery agent compound dose, insulin dose and dose volume amounts are listed below in Table 1.\nThe typical dosing and sampling protocols were as follows. […] A dosing group of five rats was administered one of the dosing solutions. […] The syringe was filled with dosing solution by drawing the solution through the catheter, which was then wiped dry. The catheter was placed down the esophagus leaving 1 cm of tubing past the incisors. The dosing solution was administered by pressing the syringe plunger.\nThe five values for each time point were averaged and the results plotted as serum insulin concentration versus time.", "data": [{"substance": "human insulin", "values": [{"measurement": "levels of human insulin following oral dosing with human insulin alone", "value": "no measurable levels"}]}]}
